Literature values, collected in US8110657B2, “Polypeptides and polynucleotides for enhancing immune reactivity to HER-2 protein” (priority 1999, dated 2012).

System: metastatic, HER-2-overexpressing breast cancers
Details: combined with cytotoxic chemotherapeutics; cited from earlier work

## Trastuzumab
  survival: improve survival
